Laboratory results as given in patent US8809010B2, “Method for prophylactic treatment of alzheimer's disease using inhibitors of glutaminyl cyclase and glutamate cyclases” (Probiodrug AG, priority 2003, dated 2014).

The chains behind the UniProt entries cited, without tags or fusion partners. Residues count along the entry.
UniProt O81226, 1-288: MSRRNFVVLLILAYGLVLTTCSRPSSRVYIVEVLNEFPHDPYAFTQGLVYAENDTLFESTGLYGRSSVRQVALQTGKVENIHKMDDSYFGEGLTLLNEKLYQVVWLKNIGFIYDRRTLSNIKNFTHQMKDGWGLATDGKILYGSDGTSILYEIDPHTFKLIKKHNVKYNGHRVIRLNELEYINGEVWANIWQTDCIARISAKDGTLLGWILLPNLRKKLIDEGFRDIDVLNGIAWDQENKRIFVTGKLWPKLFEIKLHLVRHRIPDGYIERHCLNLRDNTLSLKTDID

Assays:
[1] = molecular target: T1, Papaya QC (Carica papaya, UniProt O81226); test: Continuous spectrophotometric QC assay (glutamate dehydrogenase coupled), substrate kinetics
[2] = molecular target: T1, Papaya QC; test: Qualitative substrate conversion (MALDI-TOF / fluorometric)
[3] = molecular target: T1, Papaya QC; test: Fluorometric QC assay with H-Gln-AMC; conditions: H-Gln-AMC as substrate
[4] = 0.05M Tricine-NaOH, pH 8.0, 0.5 M KCl

In the case of H-Gln-NH2, the Km [1] is reported as 433 µM, the “kcat” value [1] is reported as 44.8 ± 0.4 s⁻¹ and the “Ki (mM)” value ([1]; 0.05M Tricine-NaOH, pH 8.0) is reported as “n.i”. The Km ([1]; 0.05M Tricine-NaOH, pH 8.0) was 434 µM, the “kcat” value ([1]; 0.05M Tricine-NaOH, pH 8.0) was 43.4 ± 0.4 s⁻¹ and the “Ki (mM)” value [1, 4] was “n.i”. For the same compound, the Km [1, 4] was 446 µM, the “kcat” value [1, 4] was 45.2 ± 0.3 s⁻¹ and the “Ki* (mM)” value ([1]; for substrate inhibition) was “n.i”.

With `CC(C)[C@H](NC(=O)[C@@H](N)CCC(N)=O)C(=O)O` [H-Gln-Val-OH] the “Ki* (mM)” value ([1]; for substrate inhibition) was “n.i”.

H-Glu(OMe)-βNA was tested, and the “conversion by papaya QC” value [2] was “None of these compounds were converted”.

With `NC(=O)CCC(N)C(=O)Nc1ccc2ccccc2c1` (stereo not shown) the “kcat” value [1] was 51.4 ± 1.4 s⁻¹, the Ki ([1]; 0.05M Tricine-NaOH, pH 8.0) was 1140 µM and the “kcat” value ([1]; 0.05M Tricine-NaOH, pH 8.0) was 48.8 ± 1.0 s⁻¹. For the same compound, the Ki [1, 4] was 1330 µM, the “kcat” value [1, 4] was 47.2 ± 0.8 s⁻¹ and the Ki ([1]; for substrate inhibition) was 1200 µM.

For `NC(=O)CC[C@H](NC(=O)[C@@H](N)CCC(N)=O)C(=O)O` [H-Gln-Gln-OH], the “Ki* (mM)” value ([1]; for substrate inhibition) was “n.i”.

With `NC(=O)CC[C@H](N)C(=O)N[C@@H](CCC(=O)O)C(=O)N1CCC[C@H]1C(N)=O` [[Gln^1]-FPP] the “kcat” value [1] was 32.5 ± 0.4 s⁻¹.

With `C[C@H](NC(=O)[C@@H](N)CCC(N)=O)C(=O)O` [H-Gln-Ala-OH] the “Ki (mM)” value ([1]; 0.05M Tricine-NaOH, pH 8.0) was “n.i”, the “Ki (mM)” value [1, 4] was “n.i” and the “Ki* (mM)” value ([1]; for substrate inhibition) was “n.i”.

In the case of H-Glu(OMe)-Phe-Lys-Arg-Leu-Ala-NH2, the “inhibition of papaya QC” value [3] is reported as “not inhibited”.

With `CC(C)C[C@H](NC(=O)[C@H](CCCNC(=N)N)NC(=O)[C@H](CCCCN)NC(=O)[C@H](Cc1ccccc1)NC(=O)[C@@H](N)CCC(=O)O)C(=O)N[C@@H](C)C(N)=O` [H-Glu-Phe-Lys-Arg-Leu-Ala-NH2] the “inhibition of papaya QC” value [3] was “not inhibited”.

With `NC(=O)CC[C@H](N)C(=O)N[C@@H](Cc1ccc(O)cc1)C(=O)O` [H-Gln-Tyr-OH] the “Ki* (mM)” value ([1]; for substrate inhibition) was “n.i”.

In the case of H-Gln-Lys(Gln)-Arg-Leu-Ala-NH2, the “conversion by papaya QC” value [2] is reported as “converted”.

For `NC(=O)CC[C@H](N)C(=O)NCC(=O)O` [H-Gln-Gly-OH], the “Ki* (mM)” value ([1]; for substrate inhibition) was “n.i”.

In the case of H-Glu-βNA, the “conversion by papaya QC” value [2] is reported as “None of these compounds were converted”.

With `CSCC[C@H](NC(=O)[C@H](Cc1c[nH]c2ccccc12)NC(=O)CNC(=O)[C@H](Cc1ccc(O)cc1)NC(=O)[C@H](C)NC(=O)[C@H](CCC(=O)O)NC(=O)[C@H](CCC(=O)O)NC(=O)[C@H](CCC(=O)O)NC(=O)[C@H](CCC(=O)O)NC(=O)[C@H](CCC(=O)O)NC(=O)[C@H](CC(C)C)NC(=O)[C@H](Cc1c[nH]c2ccccc12)NC(=O)[C@@H]1CCCN1C(=O)CNC(=O)[C@@H](N)CCC(N)=O)C(=O)N[C@@H](CC(=O)O)C(=O)N[C@@H](Cc1ccccc1)C(N)=O` the “kcat” value [1] was 25.8 ± 0.5 s⁻¹.

In the case of `NC(=O)CC[C@H](N)C(=O)N[C@@H](CCC(=O)O)C(=O)O` [H-Gln-Glu-OH], the “Ki (mM)” value ([1]; 0.05M Tricine-NaOH, pH 8.0) is reported as “n.i”, the “Ki (mM)” value [1, 4] is reported as “n.i” and the “Ki* (mM)” value ([1]; for substrate inhibition) is reported as “n.i”.

In the case of H-Gln(NMe)-Phe-Lys-Ala-Glu-NH2, the “conversion by papaya QC” value [2] is reported as “only converted into a pyroglutamyl residue by papaya QC”.

`CC(C)(C)OC(=O)C(N)CCC(N)=O` (stereo not shown) [H-Gln-OtBu] was tested, and the “Ki* (mM)” value ([1]; for substrate inhibition) was “n.i”.

Like-named read-outs stand apart in the source and are kept apart here.
